The test concerns the target HLA-A2.1 molecules expressed by 174CEM.T2 cells (human). Put plainly: T2 HLA-A2.1 stabilisation, flow cytometry (BB7.2), peptide 200 ug/ml. For orientation: Flow cytometry measures light scatter and fluorescence of single cells or particles in a stream.

B1: … (residues 18-26 of HPV16 protein E6) (peptide)
peptide: KLPQLCTEL
modifications: not checked
With B1, the MF (mean fluorescence) came out at 169.

The record behind these values is patent publication US7364741.
